{"source": "the NIST ThermoML archive (doi:10.1021/je101008y)", "test": "activity coefficient (dimensionless); of the first substance listed, at infinite dilution; xn = mol fraction of the nth substance listed", "conditions": "Liquid, Chromatography, x1 = 0", "note": "± gives the expanded uncertainty stated by the source.", "data": [{"smiles": "CCCCOCCCC", "note": "[dibutyl ether] + CCCC[N+]1(C)CCCCC1.N#C[S-]", "values": [{"measurement": "activity coefficient", "setting": "318.2 K", "result": "79.3 ± 5.4"}, {"measurement": "activity coefficient", "setting": "328.2 K", "result": "73.5 ± 5"}, {"measurement": "activity coefficient", "setting": "338.2 K", "result": "68.2 ± 4.7"}, {"measurement": "activity coefficient", "setting": "348.2 K", "result": "63.6 ± 4.4"}, {"measurement": "activity coefficient", "setting": "358.2 K", "result": "60.6 ± 4.2"}]}]}
